# Data published in paper PMC11156613 (Journal of Advanced Research, 2023).
# Test system: HEL cells
# Experiment: Apoptosis induction, annexin-V/PI flow cytometry
# Assay type: cell-based, human
# Conditions: 24 h
smiles,measurement,value
"O=C(CCCCCCC(=O)Nc1ccccc1)NO [SAHA, reference compound]",concentration at which apoptosis induction starts,approximately 400 nM
